Assay results taken from ChEMBL document CHEMBL1131467, “Identification and initial structure-activity relationships of a novel class of nonpeptide inhibitors of blood coagulation factor Xa” (J Med Chem, 1998).

Amino acid sequences for entries named in this document (tags omitted). Residues count along the entry.
UniProt P00742, 41-179 limits assumed: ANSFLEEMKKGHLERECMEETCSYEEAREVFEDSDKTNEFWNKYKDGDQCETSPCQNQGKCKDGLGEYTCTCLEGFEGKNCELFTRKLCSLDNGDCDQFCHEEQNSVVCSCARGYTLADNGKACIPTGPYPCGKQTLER
UniProt P00742, 235-488 limits assumed: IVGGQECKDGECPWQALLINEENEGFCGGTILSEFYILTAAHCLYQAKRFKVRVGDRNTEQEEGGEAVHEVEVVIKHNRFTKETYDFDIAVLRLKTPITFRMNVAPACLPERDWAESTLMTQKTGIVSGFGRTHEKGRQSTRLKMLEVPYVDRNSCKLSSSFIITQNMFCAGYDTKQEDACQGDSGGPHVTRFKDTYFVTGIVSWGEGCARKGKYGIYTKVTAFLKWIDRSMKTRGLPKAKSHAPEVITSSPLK

Target: Coagulation factor X (Homo sapiens, UniProt P00742)
Experiment: Inhibitory activity against human Coagulation factor X
Method in brief: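 Human factor Xa at 1 nM final, in 0.05 M Tris, 0.15 M NaCl, 0.1% PEG-8000, pH 7.5, room temperature. Compound preincubated with enzyme 30 min, then Spectrozyme FXa added (200 μM final). Read continuously at 405 nm for 5 min; under 10% of substrate consumed. Run in triplicate. IC50 taken from initial velocities; Ki by Cheng-Prusoff, assuming competitive inhibition.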

IC50: 1.13 µM
Structure (SMILES): COC(=O)C(Cc1cccc(C(=N)N)c1)C(/C=C/c1ccccc1)NC(=O)Cc1ccc(-c2ccccc2)cc1 (stereo unspecified)
